# Data: patent publication US6420131B1, “Use of fluorescein aryl ethers in high throughput cytochrome P450 inhibition assays” (Gentest Corporation, priority 1999, dated 2002)
# Test system: panel of Human P450 enzymes
# Experiment: Specificity of dealkylation of CMFDE and MF by a panel of human P450 enzymes
# Conditions: any of the human P450 enzymes; 1 uM substrate
substance,measurement,value
5-(and-6)-chloromethylfluorescein diethyl ether [CMFDE],substrate quality based on turnover number,not a good substrate
